Source: patent US20190381171A1, “CO-USE OF ANTI-BCMA ANTIBODY AND ANTIBODY-COUPLED T CELL RECEPTOR (ACTR) IN CANCER THERAPY AND B CELL DISORDERS” (UNUM THERAPEUTICS INC., priority 2017, published 2019)

Test system: NCI-H929 target cells
Test: ACTR T-cell cytokine release (IFNγ, IL2; Meso Scale Discovery) in co-culture with target cells and antibody
Type: cell-based, human
Conditions: T-cells expressing ACTR SEQ ID NO:1, E:T 4:1, 24-hour, increasing antibody concentrations, BCMA+ HER2− NCI-H929
Method: T-cells expressing ACTR variant SEQ ID NO: 1 (effector; E) and target cells (target; T) were incubated at a 4:1, effector-to-target ratio (120,000 T cells; 30,000 target cells) with increasing concentrations of various chimeric antibodies in a 200-μL reaction volume in RPMI 1640 media supplemented with 10% fetal bovine serum. In FIG. 4, the chimeric antibodies included fucosylated and afucosylated (SEA) versions of the SG16.17 and SG16.45 anti-BCMA antibodies at a concentration range of 100-0.0005 μg/mL. In FIG. 9, humanized afucosylated (SEA) SG16.17 antibody was used at a concentration range of 3.8-0.002 μg/mL. […] Supernatants were subsequently analyzed for IFNγ and IL2 using the Meso Scale Discovery V-Plex Human IFN-γ Kit (K151QOD-4) and V-Plex Human IL-2 Kit (K151QQD-4). Briefly, the Proinflammatory Calibrator Blend, Detection Antibody Solution, and Read Buffer were prepared according to manufacturer protocols. […] Read Buffer (150 μL) was added to the plate and the plates were run on the MSD Quickplex SQ 120.
ACTR or mock T-cells (effector; E) and target cells (target; T) were incubated at a 4:1 E:T ratio in the presence of increasing concentrations of anti-BCMA (hSG16.17 SEA) or anti-HER2 (trastuzumab) targeting antibodies. […] Supernatants were subsequently analyzed for IFNγ using the Meso Scale Discovery V-Plex Human IFN-γ Kit (K151QOD-4). […]

trastuzumab [reference compound] was tested, and the IFNγ production was “minimal IFNγ”.
